Our source for the EC50 values is patent publication US10941152B2, “Pyrazole compounds as modulators of FSHR and uses thereof” (TOCOPHERX, INC., priority 2014, dated 2021).

The chains behind the UniProt entries cited, without tags or fusion partners. Residues count along the entry.
UniProt P23945, 18-695 limits assumed: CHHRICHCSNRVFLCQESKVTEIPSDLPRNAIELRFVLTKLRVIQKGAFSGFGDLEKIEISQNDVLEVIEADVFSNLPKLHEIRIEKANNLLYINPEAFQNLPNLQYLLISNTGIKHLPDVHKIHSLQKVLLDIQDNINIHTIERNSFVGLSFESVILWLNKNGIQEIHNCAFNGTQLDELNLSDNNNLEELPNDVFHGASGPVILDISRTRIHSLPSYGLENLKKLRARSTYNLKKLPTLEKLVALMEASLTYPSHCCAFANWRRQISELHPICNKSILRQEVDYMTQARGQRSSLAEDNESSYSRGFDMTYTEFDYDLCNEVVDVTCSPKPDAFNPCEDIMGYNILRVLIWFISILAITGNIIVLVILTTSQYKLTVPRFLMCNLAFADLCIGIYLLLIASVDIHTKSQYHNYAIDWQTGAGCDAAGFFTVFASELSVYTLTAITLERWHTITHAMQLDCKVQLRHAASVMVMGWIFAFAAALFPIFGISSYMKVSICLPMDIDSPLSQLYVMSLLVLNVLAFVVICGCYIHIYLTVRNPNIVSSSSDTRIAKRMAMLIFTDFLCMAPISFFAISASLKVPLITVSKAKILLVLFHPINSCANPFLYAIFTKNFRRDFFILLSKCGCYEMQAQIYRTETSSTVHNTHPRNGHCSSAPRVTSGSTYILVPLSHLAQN
UniProt P20395, 18-692 limits assumed: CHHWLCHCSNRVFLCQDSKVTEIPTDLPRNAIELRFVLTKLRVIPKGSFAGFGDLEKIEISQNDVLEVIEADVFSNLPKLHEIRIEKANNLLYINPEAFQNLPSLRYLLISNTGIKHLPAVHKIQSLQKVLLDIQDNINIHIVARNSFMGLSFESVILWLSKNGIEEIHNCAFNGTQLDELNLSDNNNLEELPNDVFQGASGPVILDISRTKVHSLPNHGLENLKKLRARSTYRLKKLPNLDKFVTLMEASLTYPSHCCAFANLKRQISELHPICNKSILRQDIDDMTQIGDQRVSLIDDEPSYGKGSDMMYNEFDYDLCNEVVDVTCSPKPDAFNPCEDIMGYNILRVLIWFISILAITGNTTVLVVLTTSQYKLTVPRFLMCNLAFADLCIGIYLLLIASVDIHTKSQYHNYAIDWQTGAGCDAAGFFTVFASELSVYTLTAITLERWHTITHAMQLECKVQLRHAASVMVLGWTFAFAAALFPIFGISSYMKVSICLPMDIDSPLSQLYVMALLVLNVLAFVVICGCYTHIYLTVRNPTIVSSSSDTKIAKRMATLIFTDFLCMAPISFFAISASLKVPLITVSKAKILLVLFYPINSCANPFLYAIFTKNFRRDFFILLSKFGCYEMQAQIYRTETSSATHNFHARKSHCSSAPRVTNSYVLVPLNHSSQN

In one test the target is FSHR (Homo sapiens, UniProt P23945). Briefly: EC50 of cyclic AMP production in CHO FSHR cells + EC20 FSH (Assay A). The note with it: read-out: Assay A; cyclic AMP production in CHO FSHR cells + EC20 FSH (0.265 pM), HTRF. As for the experimental part:
Example 24. EC50 of cyclic AMP production in CHO FSHR cells+EC20 FSH (Assay A)
2500 Cho-FSHR-LUC-1-1-43 cells were plated per well in 5 al of phenol red free DMEM/F12+1% FBS. Cells were plated in 384 well, solid white low volume plates (Greiner 784075) by Multidrop. Cells were assayed by adding 100 al of 2×EC20 FSH/IBMX in DMEM/F12+0.1% BSA) by Multidrop to 2 al of test compound stamped in 384 well plates (compounds are diluted 1:50). The final FSH concentration was 0.265 pM, and the final IBMX concentration was 200 μM. The compound plate map was as follows: Column 1: 2 μl of DMSO; Column 2: 2 μl of DMSO; Columns 3-12 and 13-24: 2 μl of test compound, diluted 1:4 in 100% DMSO, or 2 μl of FSH, diluted 1:4 in DMEM/F12+0.1% BSA. The starting concentration for FSH was 50 nM (final concentration was 0.5 nM). Furthermore, Column 23 contained 2 μl of EC100 FSH reference (100×) (diluted in DMEM/F12+0.1% BSA) at a final concentration of 0.5 nM, and Column 24 contained 2 μl of 1 mM AS707664/2 reference compound 2. 5 μl of compound+EC20 FSH mixture were transferred to cell plates (1:2 dilution into 5 μl of cell media) The plates were incubated at 37° C. for 1 h. 10 μl of mixed HTRF (CisBio #62AM4PEC) reagents were added per well and incubated at room temperature for 1 h. The plates were read on Envision using the cAMP HTRF—low volume 384 well protocol. The readout was the calculated fluorescence ratio (665 nm/620 nm). Values given in percent (%) indicate the percental effect (response) at a certain concentration of agonist relative to the maximum response of the FSH standard.
For orientation: TR-FRET usually uses a lanthanide donor and a delayed reading to cut background.

Test [1] deals with follicle-stimulating hormone (FSH) receptor (Rattus norvegicus, UniProt P20395). In words: Rat granulosa EC50 FSH (Assay B). The note with it: read-out: Assay B. As for the experimental part: Example 25. Rat granulosa EC50 FSH (Assay B)
The assay was performed pursuant to the teaching of Yanofsky et al. (2006) Allosteric activation of the follicle-stimulating hormone (FSH) receptor by selective, nonpeptide agonists (JBC 281(19): 13226-13233, which is incorporated by reference in the disclosure of the invention).

Regarding `COc1cc2c(cc1-c1cncc(C(N)=O)c1)-c1c(c(C(=O)N(C)C(C)(C)C)nn1-c1cc(F)cc(Cl)c1)CO2`, the EC50 (on FSHR; in test [1]) was less than 10 nM in each case.

Turning to `COc1cc2c(cc1-c1cncc(C(N)=O)c1)-c1c(c(C(=O)N3CCOCC3(C)C)nn1-c1cc(F)cc(Cl)c1)CO2`, the EC50 (on FSHR; in test [1]) was less than 10 nM in each case.

As to `COc1cc2c(cc1-c1nn(C)cc1Br)-c1c(c(C(=O)N(C)C(C)(C)C#N)nn1-c1cc(F)cc(F)c1)CO2`, the EC50 was less than 10 nM on FSHR and greater than 500 nM in test [1].
